Measurements reported in PubChem BioAssay (NCI).
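Method: 48-hour compound exposure of cells in 96-well plates, five concentrations, linear interpolation of endpoints. The concentration for 50% growth inhibition is given as GI50. The concentration for full growth arrest is given as TGI.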

Legend:
Test in all cases: inhibition of tumour cell growth, NCI panel, 48 h
COLO 205 colon = system: COLO 205 colon
SK-OV-3 ovarian = system: SK-OV-3 ovarian
HS 578T breast = system: HS 578T breast
TK-10 renal = system: TK-10 renal
SN12C renal = system: SN12C renal
SNB-19 CNS = system: SNB-19 CNS
SK-MEL-2 melanoma = system: SK-MEL-2 melanoma
OVCAR-5 ovarian = system: OVCAR-5 ovarian
OVCAR-8 ovarian = system: OVCAR-8 ovarian
SK-MEL-28 melanoma = system: SK-MEL-28 melanoma
SNB-75 CNS = system: SNB-75 CNS
HCC-2998 colon = system: HCC-2998 colon
T-47D breast = system: T-47D breast
NCI-H460 lung = system: NCI-H460 lung
UACC-257 melanoma = system: UACC-257 melanoma
HOP-92 NSCLC = system: HOP-92 NSCLC
MDA-N = system: MDA-N
IGROV1 ovarian = system: IGROV1 ovarian
NCI-H23 lung = system: NCI-H23 lung
OVCAR-3 ovarian = system: OVCAR-3 ovarian
LOX IMVI melanoma = system: LOX IMVI melanoma
DU-145 prostate = system: DU-145 prostate
SF-295 CNS = system: SF-295 CNS
MDA-MB-231 breast = system: MDA-MB-231 breast
NCI/ADR-RES ovarian = system: NCI/ADR-RES ovarian
HOP-62 NSCLC = system: HOP-62 NSCLC
PC-3 prostate = system: PC-3 prostate
SK-MEL-5 melanoma = system: SK-MEL-5 melanoma
U251 CNS = system: U251 CNS
NCI-H522 lung = system: NCI-H522 lung
HCT-15 colon = system: HCT-15 colon
A549 NSCLC = system: A549 NSCLC
OVCAR-4 ovarian = system: OVCAR-4 ovarian
HCT-116 colon = system: HCT-116 colon
CAKI-1 renal = system: CAKI-1 renal
UO-31 renal = system: UO-31 renal
MDA-MB-435 = system: MDA-MB-435
K-562 leukemia = system: K-562 leukemia
SW-620 colon = system: SW-620 colon
ACHN renal = system: ACHN renal
HT29 colon = system: HT29 colon
HL-60(TB) leukemia = system: HL-60(TB) leukemia
MCF7 breast = system: MCF7 breast
M14 melanoma = system: M14 melanoma
RPMI-8226 leukemia = system: RPMI-8226 leukemia
NCI-H226 lung = system: NCI-H226 lung

SMILES: CCCC[S+](N)(=O)CCC(N)P(=O)(O)O.O=[N+]([O-])c1cc([N+](=O)[O-])c([O-])c([N+](=O)[O-])c1
- GI50 (COLO 205 colon): > 100 µM
- TGI (COLO 205 colon): > 100 µM
- GI50 (SK-OV-3 ovarian): > 100 µM
- TGI (SK-OV-3 ovarian): > 100 µM
- GI50 (HS 578T breast): > 100 µM
- TGI (HS 578T breast): > 100 µM
- GI50 (TK-10 renal): > 100 µM
- TGI (TK-10 renal): > 100 µM
- GI50 (SN12C renal): > 100 µM
- TGI (SN12C renal): > 100 µM
- GI50 (SNB-19 CNS): > 100 µM
- TGI (SNB-19 CNS): > 100 µM
- GI50 (SK-MEL-2 melanoma): > 100 µM
- TGI (SK-MEL-2 melanoma): > 100 µM
- GI50 (OVCAR-5 ovarian): > 100 µM
- TGI (OVCAR-5 ovarian): > 100 µM
- GI50 (OVCAR-8 ovarian): > 100 µM
- TGI (OVCAR-8 ovarian): > 100 µM
- GI50 (SK-MEL-28 melanoma): 63.9 µM
- TGI (SK-MEL-28 melanoma): > 100 µM
- GI50 (SNB-75 CNS): > 100 µM
- TGI (SNB-75 CNS): > 100 µM
- GI50 (HCC-2998 colon): > 100 µM
- TGI (HCC-2998 colon): > 100 µM
- GI50 (T-47D breast): > 100 µM
- TGI (T-47D breast): > 100 µM
- GI50 (NCI-H460 lung): > 100 µM
- TGI (NCI-H460 lung): > 100 µM
- GI50 (UACC-257 melanoma): > 100 µM
- TGI (UACC-257 melanoma): > 100 µM
- GI50 (HOP-92 NSCLC): 92.3 µM
- TGI (HOP-92 NSCLC): > 100 µM
- GI50 (MDA-N): 24.4 µM
- TGI (MDA-N): 63.4 µM
- GI50 (IGROV1 ovarian): > 100 µM
- TGI (IGROV1 ovarian): > 100 µM
- GI50 (NCI-H23 lung): > 100 µM
- TGI (NCI-H23 lung): > 100 µM
- GI50 (OVCAR-3 ovarian): > 100 µM
- TGI (OVCAR-3 ovarian): > 100 µM
- GI50 (LOX IMVI melanoma): 37 µM
- TGI (LOX IMVI melanoma): > 100 µM
- GI50 (DU-145 prostate): > 100 µM
- TGI (DU-145 prostate): > 100 µM
- GI50 (SF-295 CNS): > 100 µM
- TGI (SF-295 CNS): > 100 µM
- GI50 (MDA-MB-231 breast): > 100 µM
- TGI (MDA-MB-231 breast): > 100 µM
- GI50 (NCI/ADR-RES ovarian): > 100 µM
- TGI (NCI/ADR-RES ovarian): > 100 µM
- GI50 (HOP-62 NSCLC): > 100 µM
- TGI (HOP-62 NSCLC): > 100 µM
- GI50 (PC-3 prostate): > 100 µM
- TGI (PC-3 prostate): > 100 µM
- GI50 (SK-MEL-5 melanoma): > 100 µM
- TGI (SK-MEL-5 melanoma): > 100 µM
- GI50 (U251 CNS): > 100 µM
- TGI (U251 CNS): > 100 µM
- GI50 (NCI-H522 lung): > 100 µM
- TGI (NCI-H522 lung): > 100 µM
- GI50 (HCT-15 colon): > 100 µM
- TGI (HCT-15 colon): > 100 µM
- GI50 (A549 NSCLC): > 100 µM
- TGI (A549 NSCLC): > 100 µM
- GI50 (OVCAR-4 ovarian): 64.2 µM
- TGI (OVCAR-4 ovarian): > 100 µM
- GI50 (HCT-116 colon): > 100 µM
- TGI (HCT-116 colon): > 100 µM
- GI50 (CAKI-1 renal): > 100 µM
- TGI (CAKI-1 renal): > 100 µM
- GI50 (UO-31 renal): > 100 µM
- TGI (UO-31 renal): > 100 µM
- GI50 (MDA-MB-435): 6.38 µM
- TGI (MDA-MB-435): > 100 µM
- GI50 (K-562 leukemia): > 100 µM
- TGI (K-562 leukemia): > 100 µM
- GI50 (SW-620 colon): > 100 µM
- TGI (SW-620 colon): > 100 µM
- GI50 (ACHN renal): > 100 µM
- TGI (ACHN renal): > 100 µM
- GI50 (HT29 colon): > 100 µM
- TGI (HT29 colon): > 100 µM
- GI50 (HL-60(TB) leukemia): > 100 µM
- TGI (HL-60(TB) leukemia): > 100 µM
- GI50 (MCF7 breast): > 100 µM
- TGI (MCF7 breast): > 100 µM
- GI50 (M14 melanoma): 77.2 µM
- TGI (M14 melanoma): > 100 µM
- GI50 (RPMI-8226 leukemia): > 100 µM
- TGI (RPMI-8226 leukemia): > 100 µM
- GI50 (NCI-H226 lung): > 100 µM
- TGI (NCI-H226 lung): > 100 µM
